The results in this text go back to PubChem BioAssay AID893 (National Center for Advancing Translational Sciences (NCATS), 2007).

This is a selection; strong and weak results do not stand in their true shares. Some of these compounds have results that are not shown, active ones among them. Inconclusive results are not listed. Calls of active or inactive are those of the source. The call rests on the fitted dose curve; in most records, active means well fitted inhibition curve with a large enough effect; inconclusive means small, poorly fitted or top-dose-only effect; inactive means no such curve, though single readings can be large or run the other way.
On the % scale 0 is the no-effect control and ±100 the full control effect.

In this experiment the target is 3-hydroxyacyl-CoA dehydrogenase type-2 (Homo sapiens) (UniProt Q99714). Description: qHTS Assay for Inhibitors of HSD17B4, hydroxysteroid (17-beta) dehydrogenase 4.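 Further: the protocol describes HADH2 (HSD17B10) and not the HSD17B4 of the title; nearly all actives have a fitted effect of over 70% in size.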 The note with it: recombinant HSD17B10, NADH fluorescence kinetic; at 11.4 µM (top of the series) unless noted. In general terms: Quantitative high-throughput screening tests each substance at several concentrations.
With `CN(C)c1cccc(C(=O)NCC2(N(C)C)CCCCC2)c1`, the activity change, negative = inhibition was inactive: -7.27% [at 57.1 µM].

Regarding `C=C(C)C#C[C@@](O)(C(=O)OC1CCN(C)CC1)c1ccccc1`, the activity change, negative = inhibition is inactive: 7.02%.

On to `CN1CCC[C@H](OC(=O)[C@](O)(c2ccccc2)C2CCCC2)C1`, for which the activity change, negative = inhibition was inactive: 12.4%.

On to `CN1CC[C@H](OC(=O)[C@](O)(c2ccccc2)C2CCCC2)C1`, for which the activity change, negative = inhibition was inactive: 4.96%.

As for `O=C(OC1CN2CCC1CC2)C(CO)(c1ccccc1)c1ccccc1` (stereo not given), the activity change, negative = inhibition is inactive: 5.61% [at 57.1 µM].
